Columns and labels:
[1] = biological target: T1, Phosphatidylinositol 4,5-bisphosphate 3-kinase catalytic subunit delta isoform (Homo sapiens, UniProt O00329); test: Inhibition of poly-His tagged human PI3Kdelta expressed in baculovirus infected insect sf9 cells coexpressing p85alpha using PI(4,5)P2 as substrate preincubated with compound for 15 mins measured after 10 mins by HTRF assay
T1 sequence (O00329 whole entry): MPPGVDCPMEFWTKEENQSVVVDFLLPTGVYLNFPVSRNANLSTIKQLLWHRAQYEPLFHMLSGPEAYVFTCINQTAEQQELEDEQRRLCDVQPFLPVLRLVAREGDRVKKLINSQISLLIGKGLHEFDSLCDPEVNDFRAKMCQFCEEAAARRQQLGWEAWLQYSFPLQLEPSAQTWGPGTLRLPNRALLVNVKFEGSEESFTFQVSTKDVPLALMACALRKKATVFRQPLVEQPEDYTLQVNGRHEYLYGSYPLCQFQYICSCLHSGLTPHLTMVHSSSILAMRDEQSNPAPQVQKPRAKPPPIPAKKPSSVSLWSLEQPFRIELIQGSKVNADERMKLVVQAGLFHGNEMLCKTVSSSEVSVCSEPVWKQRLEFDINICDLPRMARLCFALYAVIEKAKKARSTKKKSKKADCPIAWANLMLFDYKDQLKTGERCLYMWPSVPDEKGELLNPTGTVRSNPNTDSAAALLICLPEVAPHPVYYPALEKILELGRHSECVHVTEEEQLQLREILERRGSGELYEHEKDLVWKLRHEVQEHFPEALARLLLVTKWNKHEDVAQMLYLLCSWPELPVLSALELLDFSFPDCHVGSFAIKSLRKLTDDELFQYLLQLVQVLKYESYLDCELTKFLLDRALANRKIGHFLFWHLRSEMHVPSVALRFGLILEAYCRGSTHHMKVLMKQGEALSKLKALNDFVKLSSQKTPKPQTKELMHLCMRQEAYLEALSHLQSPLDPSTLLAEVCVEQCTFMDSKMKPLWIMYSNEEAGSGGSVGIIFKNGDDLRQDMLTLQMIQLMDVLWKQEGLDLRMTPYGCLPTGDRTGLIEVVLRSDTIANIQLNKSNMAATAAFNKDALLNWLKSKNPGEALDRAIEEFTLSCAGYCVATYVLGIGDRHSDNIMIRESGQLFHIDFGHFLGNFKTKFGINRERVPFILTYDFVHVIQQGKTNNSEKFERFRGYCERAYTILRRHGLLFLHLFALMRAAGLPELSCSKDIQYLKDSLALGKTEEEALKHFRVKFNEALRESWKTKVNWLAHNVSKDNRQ

Sequences of proteins named here, by UniProt entry; tags and fusion partners are left off. A change or cut given only in a name is not applied to a line headed by its entry.
UniProt P42338: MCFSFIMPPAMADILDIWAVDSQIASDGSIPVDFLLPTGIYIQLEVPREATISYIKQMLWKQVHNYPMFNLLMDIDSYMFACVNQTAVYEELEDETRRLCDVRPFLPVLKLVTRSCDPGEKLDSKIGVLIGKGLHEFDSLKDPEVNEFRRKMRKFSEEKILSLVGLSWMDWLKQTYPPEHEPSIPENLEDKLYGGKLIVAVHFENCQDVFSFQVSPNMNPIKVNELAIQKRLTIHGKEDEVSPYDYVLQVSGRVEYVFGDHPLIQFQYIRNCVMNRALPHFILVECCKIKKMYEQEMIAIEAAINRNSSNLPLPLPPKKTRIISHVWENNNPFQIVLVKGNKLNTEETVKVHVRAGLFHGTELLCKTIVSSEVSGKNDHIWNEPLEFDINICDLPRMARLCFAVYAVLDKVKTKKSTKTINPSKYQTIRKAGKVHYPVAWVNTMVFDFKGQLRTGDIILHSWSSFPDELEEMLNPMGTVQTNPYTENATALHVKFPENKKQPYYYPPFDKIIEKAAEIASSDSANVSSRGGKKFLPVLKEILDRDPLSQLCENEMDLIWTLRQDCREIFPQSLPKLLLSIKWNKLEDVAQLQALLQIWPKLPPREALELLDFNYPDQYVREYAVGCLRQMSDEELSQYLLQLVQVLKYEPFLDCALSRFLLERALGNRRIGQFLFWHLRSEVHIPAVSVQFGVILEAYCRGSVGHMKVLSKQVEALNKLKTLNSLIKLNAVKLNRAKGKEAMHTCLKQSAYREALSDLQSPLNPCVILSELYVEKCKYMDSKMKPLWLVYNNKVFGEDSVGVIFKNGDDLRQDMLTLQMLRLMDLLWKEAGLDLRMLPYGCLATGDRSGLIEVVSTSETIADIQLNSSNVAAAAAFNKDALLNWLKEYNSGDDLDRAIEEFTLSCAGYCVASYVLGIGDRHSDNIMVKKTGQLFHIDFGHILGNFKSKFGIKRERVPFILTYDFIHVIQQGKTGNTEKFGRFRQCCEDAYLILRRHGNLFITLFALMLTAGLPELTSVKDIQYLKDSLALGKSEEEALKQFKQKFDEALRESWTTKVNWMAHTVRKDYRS

[2] = biological target: T2, Phosphatidylinositol 4,5-bisphosphate 3-kinase catalytic subunit beta isoform (Homo sapiens, UniProt P42338); test: Inhibition of human PI3Kbeta-mediated Akt phosphorylation at T308 residue expressed in PTEN-deficient human PC3 cells after 2 hrs by Western blot analysis; assay type: cell-based, PC-3
[3] = biological target: T2, Phosphatidylinositol 4,5-bisphosphate 3-kinase catalytic subunit beta isoform; test: Inhibition of N-terminus poly-His tagged human PI3Kbeta expressed in baculovirus infected insect […] cells coexpressing p85alpha using PI(4,5)P2 as substrate preincubated with compound for 15 mins measured after 10 mins by HTRF assay

Row | IC50 [1] | IC50 [2] | IC50 [3] | SMILES
1 | 1390 nM | – | – | Cn1c(Cc2nc(N3CCOCC3)cc(=O)[nH]2)nc2ccccc21
2 | – | 3 nM | 30 nM | Cc1cc(C(C)Nc2ccccc2)c2nc(N3CCOCC3)cc(=O)n2c1 (stereo not drawn)

Reference: ChEMBL document CHEMBL2062364, “Discovery and optimization of new benzimidazole- and benzoxazole-pyrimidone selective PI3Kβ inhibitors for the treatment of phosphatase and TENsin homologue (PTEN)-deficient cancers” (J Med Chem, 2012)
